Paper PMC11062922 (Nature Chemical Biology, 2023)
Blank lines part the entries; values can stand above or below the molecule they belong to.

By UniProt entry, the sequences of proteins in these tests, tags left out. Where a name states a change or a piece, a line headed by the entry shows the natural chain unless it says otherwise.
UniProt P49841: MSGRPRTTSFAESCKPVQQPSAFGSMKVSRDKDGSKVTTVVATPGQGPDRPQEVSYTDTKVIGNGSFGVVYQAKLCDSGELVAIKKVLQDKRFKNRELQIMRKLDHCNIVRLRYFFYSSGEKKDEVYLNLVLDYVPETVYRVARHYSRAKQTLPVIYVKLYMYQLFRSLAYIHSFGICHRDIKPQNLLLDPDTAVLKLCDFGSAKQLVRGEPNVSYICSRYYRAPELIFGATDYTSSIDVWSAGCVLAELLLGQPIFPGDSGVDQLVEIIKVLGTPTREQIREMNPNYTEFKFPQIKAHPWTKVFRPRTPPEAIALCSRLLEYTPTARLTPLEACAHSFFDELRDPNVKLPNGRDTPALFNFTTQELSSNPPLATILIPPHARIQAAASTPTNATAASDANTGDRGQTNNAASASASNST
UniProt P49674: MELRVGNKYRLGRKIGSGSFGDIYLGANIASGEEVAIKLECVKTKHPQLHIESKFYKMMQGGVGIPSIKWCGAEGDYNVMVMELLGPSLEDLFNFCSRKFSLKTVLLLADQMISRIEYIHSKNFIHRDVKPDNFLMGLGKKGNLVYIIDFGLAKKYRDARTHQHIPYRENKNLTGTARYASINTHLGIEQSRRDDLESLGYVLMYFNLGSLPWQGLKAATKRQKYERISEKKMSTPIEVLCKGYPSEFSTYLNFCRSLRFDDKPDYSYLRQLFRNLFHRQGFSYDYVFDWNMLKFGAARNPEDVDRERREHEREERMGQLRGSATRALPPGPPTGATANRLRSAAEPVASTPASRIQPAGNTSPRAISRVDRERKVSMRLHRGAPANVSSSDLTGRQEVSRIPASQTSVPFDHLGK
UniProt P19784, whole entry: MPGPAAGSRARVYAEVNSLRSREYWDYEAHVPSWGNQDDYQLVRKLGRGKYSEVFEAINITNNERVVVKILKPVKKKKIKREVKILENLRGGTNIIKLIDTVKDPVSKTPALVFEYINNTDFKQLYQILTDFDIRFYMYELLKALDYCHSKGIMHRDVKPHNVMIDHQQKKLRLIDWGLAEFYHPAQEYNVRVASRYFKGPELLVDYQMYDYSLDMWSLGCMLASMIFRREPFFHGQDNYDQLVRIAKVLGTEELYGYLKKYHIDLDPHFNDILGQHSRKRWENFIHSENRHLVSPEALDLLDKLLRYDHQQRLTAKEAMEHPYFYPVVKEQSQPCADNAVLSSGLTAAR
UniProt P67870, whole entry: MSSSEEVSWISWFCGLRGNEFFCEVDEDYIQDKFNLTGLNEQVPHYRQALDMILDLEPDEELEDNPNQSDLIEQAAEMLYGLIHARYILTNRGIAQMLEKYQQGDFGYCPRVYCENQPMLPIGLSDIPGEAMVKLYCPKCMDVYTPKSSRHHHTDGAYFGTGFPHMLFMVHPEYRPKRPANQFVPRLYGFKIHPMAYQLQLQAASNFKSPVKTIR
UniProt P68400, whole entry: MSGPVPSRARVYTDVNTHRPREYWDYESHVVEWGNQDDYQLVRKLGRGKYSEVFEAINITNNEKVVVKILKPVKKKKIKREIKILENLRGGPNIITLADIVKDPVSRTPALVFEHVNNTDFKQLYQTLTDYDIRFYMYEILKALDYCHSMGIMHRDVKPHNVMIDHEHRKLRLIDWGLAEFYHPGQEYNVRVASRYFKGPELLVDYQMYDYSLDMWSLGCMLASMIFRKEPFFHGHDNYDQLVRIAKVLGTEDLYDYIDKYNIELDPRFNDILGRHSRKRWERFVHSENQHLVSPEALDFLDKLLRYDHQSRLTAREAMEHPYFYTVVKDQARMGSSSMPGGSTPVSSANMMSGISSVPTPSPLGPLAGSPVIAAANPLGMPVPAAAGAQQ
UniProt O75822, whole entry: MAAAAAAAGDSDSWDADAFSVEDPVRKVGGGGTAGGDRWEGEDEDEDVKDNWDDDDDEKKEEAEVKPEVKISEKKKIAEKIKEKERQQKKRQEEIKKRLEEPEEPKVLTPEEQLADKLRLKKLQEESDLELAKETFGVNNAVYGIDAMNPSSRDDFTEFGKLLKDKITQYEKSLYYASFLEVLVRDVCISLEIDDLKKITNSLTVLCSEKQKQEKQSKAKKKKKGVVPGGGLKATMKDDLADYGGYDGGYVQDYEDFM
UniProt P42684, whole entry: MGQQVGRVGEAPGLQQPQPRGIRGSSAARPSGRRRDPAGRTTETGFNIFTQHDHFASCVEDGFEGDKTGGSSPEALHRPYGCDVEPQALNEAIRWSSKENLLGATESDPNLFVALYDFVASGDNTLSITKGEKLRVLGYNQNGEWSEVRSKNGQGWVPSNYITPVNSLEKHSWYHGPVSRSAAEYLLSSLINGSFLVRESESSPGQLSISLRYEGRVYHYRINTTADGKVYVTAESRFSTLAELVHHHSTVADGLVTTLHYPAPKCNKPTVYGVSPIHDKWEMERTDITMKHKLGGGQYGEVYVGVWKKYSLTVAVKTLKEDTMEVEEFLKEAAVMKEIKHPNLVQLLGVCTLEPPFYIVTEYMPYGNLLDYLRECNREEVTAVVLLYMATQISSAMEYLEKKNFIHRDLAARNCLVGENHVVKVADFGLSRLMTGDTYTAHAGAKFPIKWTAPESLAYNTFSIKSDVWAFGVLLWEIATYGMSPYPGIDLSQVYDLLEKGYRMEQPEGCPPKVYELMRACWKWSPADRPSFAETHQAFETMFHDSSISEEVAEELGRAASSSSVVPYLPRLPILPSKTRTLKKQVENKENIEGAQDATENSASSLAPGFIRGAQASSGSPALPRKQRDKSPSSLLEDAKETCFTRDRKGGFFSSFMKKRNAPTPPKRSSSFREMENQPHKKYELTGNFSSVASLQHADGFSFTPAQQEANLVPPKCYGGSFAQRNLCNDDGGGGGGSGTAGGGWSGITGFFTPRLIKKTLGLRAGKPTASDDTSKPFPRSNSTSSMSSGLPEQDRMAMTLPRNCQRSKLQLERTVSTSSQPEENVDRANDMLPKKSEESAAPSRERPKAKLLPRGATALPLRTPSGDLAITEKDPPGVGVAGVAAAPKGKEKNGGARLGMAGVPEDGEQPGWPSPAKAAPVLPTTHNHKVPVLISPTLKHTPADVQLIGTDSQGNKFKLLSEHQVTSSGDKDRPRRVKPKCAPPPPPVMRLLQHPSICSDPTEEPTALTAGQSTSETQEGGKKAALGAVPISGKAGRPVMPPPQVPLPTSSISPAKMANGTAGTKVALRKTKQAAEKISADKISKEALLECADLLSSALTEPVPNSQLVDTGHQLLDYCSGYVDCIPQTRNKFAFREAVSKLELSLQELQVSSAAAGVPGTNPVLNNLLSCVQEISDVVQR

Assays:
[1] = target: T1, GSK3B (Homo sapiens, UniProt P49841); assay: Kinobeads two-dose competition binding: GSK3B; settings: target GSK3B
T1 construct: endogenous in cells

[2] = target: T2, CSNK1E (Homo sapiens, UniProt P49674); assay: Kinobeads competition binding: CSNK1E; settings: target CSNK1E
T2 construct: endogenous in cells

[3] = target: T3, endogenous kinases and other proteins enriched by Kinobeads from mixed cancer cell lysates (Homo sapiens, UniProt P16083); assay: Kinobeads pulldown, full dose-response (eight doses); format: binding; settings: target NQO2;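 note: competition with Kinobeads ε after inhibitor preincubation in lysate (5 mg/ml protein) for 45 min at 4 °C, DMSO control, doses 0.3–1,000 nM, label-free LC–MS/MS quantification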
T3 construct: endogenous in cells
T3 sequence (P16083 1-231): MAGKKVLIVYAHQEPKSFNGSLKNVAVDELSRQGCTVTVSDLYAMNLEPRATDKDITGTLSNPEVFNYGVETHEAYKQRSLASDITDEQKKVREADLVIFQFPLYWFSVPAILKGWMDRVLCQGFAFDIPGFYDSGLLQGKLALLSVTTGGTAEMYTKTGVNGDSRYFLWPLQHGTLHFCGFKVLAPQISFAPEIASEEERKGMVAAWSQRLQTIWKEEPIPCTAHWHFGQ

[4] = target: T4, endogenous kinases and other proteins enriched by Kinobeads from mixed cancer cell lysates (Homo sapiens, UniProt P19784); assay: as above; format: binding; settings: target CSNK2A2
T4 construct: endogenous in cells

[5] = target: T5, endogenous kinases and other proteins enriched by Kinobeads from mixed cancer cell lysates (Homo sapiens, UniProt P67870); assay: as above; format: binding; settings: target CSNK2B
T5 construct: endogenous in cells

[6] = target: T6, endogenous kinases and other proteins enriched by Kinobeads from mixed cancer cell lysates (Homo sapiens, UniProt P68400); assay: as above; format: binding; settings: target CSNK2A1;CSNK2A3
T6 construct: endogenous in cells

[7] = target: T7, endogenous kinases and other proteins enriched by Kinobeads from mixed cancer cell lysates (Homo sapiens, UniProt Q86TW2); assay: as above; format: binding; settings: target ADCK1
T7 construct: endogenous in cells
T7 sequence (Q86TW2 1-530): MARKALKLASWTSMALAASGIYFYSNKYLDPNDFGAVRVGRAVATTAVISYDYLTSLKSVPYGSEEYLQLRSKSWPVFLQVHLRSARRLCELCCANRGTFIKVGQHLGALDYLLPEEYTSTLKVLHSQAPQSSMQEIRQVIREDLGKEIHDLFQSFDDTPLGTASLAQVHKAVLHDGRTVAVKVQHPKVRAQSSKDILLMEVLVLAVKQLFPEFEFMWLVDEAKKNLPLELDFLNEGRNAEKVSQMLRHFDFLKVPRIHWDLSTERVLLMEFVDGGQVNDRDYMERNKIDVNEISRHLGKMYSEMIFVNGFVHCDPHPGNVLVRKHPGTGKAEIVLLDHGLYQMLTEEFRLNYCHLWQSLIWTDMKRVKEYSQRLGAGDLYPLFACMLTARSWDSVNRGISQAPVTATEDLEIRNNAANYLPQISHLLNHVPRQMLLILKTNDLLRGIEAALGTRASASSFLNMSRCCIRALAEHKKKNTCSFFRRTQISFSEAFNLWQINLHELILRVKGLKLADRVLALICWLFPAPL

[8] = target: T8, endogenous kinases and other proteins enriched by Kinobeads from mixed cancer cell lysates (Homo sapiens, UniProt Q9Y616); assay: as above; format: binding; settings: target IRAK3
T8 construct: endogenous in cells
T8 sequence (Q9Y616 1-596): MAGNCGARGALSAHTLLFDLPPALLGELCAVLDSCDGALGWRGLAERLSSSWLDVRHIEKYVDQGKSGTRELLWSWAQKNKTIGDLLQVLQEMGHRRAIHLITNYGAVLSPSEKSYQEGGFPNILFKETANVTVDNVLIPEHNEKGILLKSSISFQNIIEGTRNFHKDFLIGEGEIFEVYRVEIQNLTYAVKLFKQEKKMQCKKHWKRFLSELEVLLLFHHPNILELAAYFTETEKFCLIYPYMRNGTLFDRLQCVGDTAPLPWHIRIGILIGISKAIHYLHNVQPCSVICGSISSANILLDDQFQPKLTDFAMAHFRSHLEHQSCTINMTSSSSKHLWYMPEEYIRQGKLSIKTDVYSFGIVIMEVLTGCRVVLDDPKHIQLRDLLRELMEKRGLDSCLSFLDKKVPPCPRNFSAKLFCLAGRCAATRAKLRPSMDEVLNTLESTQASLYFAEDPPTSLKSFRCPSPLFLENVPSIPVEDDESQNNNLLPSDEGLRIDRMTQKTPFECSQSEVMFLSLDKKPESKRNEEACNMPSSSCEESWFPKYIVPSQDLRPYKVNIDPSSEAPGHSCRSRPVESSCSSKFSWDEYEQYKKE

[9] = target: endogenous kinases and other proteins enriched by Kinobeads from mixed cancer cell lysates (Homo sapiens, UniProt O75822); assay: as above; format: binding; parameters: endogenous in cells; settings: target EIF3J
[10] = target: T9, ABL2 (Homo sapiens, UniProt P42684); assay: Kinobeads two-dose competition binding: ABL2
T9 construct: endogenous in cells

SMILES: CCN1CCN(Cc2ccc(Nc3ncc(F)c(-c4cc(F)c5nc(C)n(C(C)C)c5c4)n3)nc2)CC1 [Abemaciclib]
CATDS [1]: 0.06142
CATDS [2]: 0

SMILES: c1cn2cc(-c3ccc4cn[nH]c4c3)nc(Nc3ccc(N4CCOCC4)cc3)c2n1 [entospletinib]
Relative Intensity 3nM ([3]; 3nM): 0.8638
Relative Intensity 10nM ([3]; 10nM): 0.7653
Relative Intensity 30nM ([3]; 30nM): 0.7014
Relative Intensity 100nM ([3]; 100nM): 0.706
Relative Intensity 300nM ([3]; 300nM): 0.5033
Relative Intensity 1000nM ([3]; 1000nM): 0.1091
Relative Intensity 3000nM ([3]; 3000nM): 0.05988
Relative Intensity 30000nM ([3]; 30000nM): 0.107
Relative Intensity 3nM ([4]; 3nM): 0.9641
Relative Intensity 10nM ([4]; 10nM): 0.9745
Relative Intensity 30nM ([4]; 30nM): 0.9659
Relative Intensity 100nM ([4]; 100nM): 0.937
Relative Intensity 300nM ([4]; 300nM): 0.9329
Relative Intensity 1000nM ([4]; 1000nM): 0.5868
Relative Intensity 3000nM ([4]; 3000nM): 0.3908
Relative Intensity 30000nM ([4]; 30000nM): 0.1465
Relative Intensity 3nM ([5]; 3nM): 1.173
Relative Intensity 10nM ([5]; 10nM): 1.116
Relative Intensity 30nM ([5]; 30nM): 1.253
Relative Intensity 100nM ([5]; 100nM): 0.9999
Relative Intensity 300nM ([5]; 300nM): 1.216
Relative Intensity 1000nM ([5]; 1000nM): 0.672
Relative Intensity 3000nM ([5]; 3000nM): 0.4372
Relative Intensity 30000nM ([5]; 30000nM): 0.231
Relative Intensity 3nM ([6]; 3nM): 0.9165
Relative Intensity 10nM ([6]; 10nM): 0.9459
Relative Intensity 30nM ([6]; 30nM): 0.8853
Relative Intensity 100nM ([6]; 100nM): 0.9826
Relative Intensity 300nM ([6]; 300nM): 1.011
Relative Intensity 1000nM ([6]; 1000nM): 0.6149
Relative Intensity 3000nM ([6]; 3000nM): 0.4488
Relative Intensity 30000nM ([6]; 30000nM): 0.1701
Relative Intensity 3nM ([7]; 3nM): 0.9978
Relative Intensity 10nM ([7]; 10nM): 0.8486
Relative Intensity 30nM ([7]; 30nM): 0.9503
Relative Intensity 100nM ([7]; 100nM): 0.9468
Relative Intensity 300nM ([7]; 300nM): 0.8835
Relative Intensity 1000nM ([7]; 1000nM): 0.7386
Relative Intensity 3000nM ([7]; 3000nM): 0.6987
Relative Intensity 30000nM ([7]; 30000nM): 0.4073
Relative Intensity 3nM ([8]; 3nM): 1.0086
Relative Intensity 10nM ([8]; 10nM): 1.045
Relative Intensity 30nM ([8]; 30nM): 1.07
Relative Intensity 100nM ([8]; 100nM): 0.9847
Relative Intensity 300nM ([8]; 300nM): 1.066
Relative Intensity 1000nM ([8]; 1000nM): 0.8555
Relative Intensity 3000nM ([8]; 3000nM): 0.8417
Relative Intensity 30000nM ([8]; 30000nM): 0.5563
Relative Intensity 3nM ([9]; 3nM): 0.8724
Relative Intensity 10nM ([9]; 10nM): 0.9483
Relative Intensity 30nM ([9]; 30nM): 1.14
Relative Intensity 100nM ([9]; 100nM): 0.8522
Relative Intensity 300nM ([9]; 300nM): 1.105
Relative Intensity 1000nM ([9]; 1000nM): 0.6452
Relative Intensity 3000nM ([9]; 3000nM): 0.4407
Relative Intensity 30000nM ([9]; 30000nM): 0.1633

CATDS [10]: 0.09747
SMILES: COc1cc(Nc2c(C#N)cnc3cc(OCCCN4CCN(C)CC4)c(OC)cc23)c(Cl)cc1Cl [Bosutinib]
